Laboratory results published in US20260022340A1, “ATRIOVENTRICULAR NODE-LIKE PACEMAKER CELLS” (UNIVERSITY HEALTH NETWORK, priority 2022, published 2026).

Tested on: human cardiac progenitors
Assay: Induction of AVN phenotype in hPSC-derived cardiac progenitors, flow cytometry for NKX2-5+TBX3+ myocytes at day 20
Type: cell-based
Description: First, hPSCs were incubated in media containing BMP and Rho-associated protein kinase (ROCK) inhibitor on an orbital shaker to generate embryoid bodies (differentiation protocol day: 0). Then, cardiogenic mesoderm was induced using media containing 1-100 ng/mL BMP4, 1-100 ng/ml Activin A, 1-20 ng/mL bFGF, and 1-10 μM CHIR-99021 (differentiation protocol day: 1). […] The cardiogenic mesoderm can be analyzed at day 3/4 of differentiation for the expression of PDGFRa, RALDH2 and CD235a, and should be PDGFRa+RALDH2− and CD235a^low (max 50% positive).
Next, cardiac progenitors were induced using media that contained 0.5-10 μM IWP2 and 1-20 ng/mL VEGF (differentiation protocol day: 3). At this stage, the cardiac progenitors may be a mixed population of early stage (NKX2-5^−) and late stage (NKX2-5^+) cardiac progenitors which may be contractile or not. The cardiac progenitors were induced into an AVN phenotype between days 8-18, which yielded relatively more NKX2^30 -5^+TBX3^+ myocytes when carried out between days 8-11 (FIG. 3A,B), using media that contained 3-15 μM CHIR-99021 and optionally contained 5 ng/mL VEGF (FIG. 4A,B). Relatively more NKX2-5^+TBX3^+ myocytes were induced when CHIR-99021 was used at 12-15 μM. Alternatively, the AVN phenotype was induced between days 5-15 (FIG. 5A) using media that contained 50-400 ng/mL BMP2 and optionally contained 5 ng/mL VEGF (FIG. 5B). Relatively more NKX2-5^+TBX3^+ myocytes were induced when BMP2 was applied between days 5-8 and when used at 200-400 ng/mL. Culture was continued in media that contained 5 ng/mL VEGF until day 12 of the differentiation protocol. The culture was maintained until day 20 of the differentiation protocol before analysis. Treatment with 15 μM CHIR-99021 from day 8-11 results in 72=10% NKX2-5^+ TBX3^+myocytes of total cells present in culture at day 20. Treatment with 400 ng/ml BMP2 from day 5-8 results in 67±10% NKX2-5^30 TBX3 myocytes of total cells present in culture at day 20. FIGS. 3B, 4B, 5A and 5B present the percentage of NKX2-5^+ TBX3^+ myocytes of total cells present in the culture.
A NKX2-5:GFP+TBX3:tdTomato+ transgenic double reporter hPSC line was cultured using the protocol described in Example 1. AVNLPCs were identified and isolated using Fluorescence-activated cell sorting (FACS), based on their expression of NKX2-5 and TBX3 and the associated expression of the fluorescent reporter (FIG. 2).

B1: BMP2: bone morphogenetic protein (BMP) component, activator of BMP signaling (protein, UniProt P12643 283-396, looked up)
Bone morphogenetic protein 2: QAKHKQRKRLKSSCKRHPLYVDFSDVGWNDWIVAPPGYHAFYCHGECPFPLADHLNSTNHAIVQTLVNSVNSKIPKACCVPTELSAISMLYLDENEKVVLKNYQDMVVEGCGCR
Percentage of AVNLPCs by timepoint of treatment (50 ng/ml BMP2 from day 5-8 versus other timepoints, n=5 (FIG. 5A)): highest percentage
NKX2-5+TBX3+ myocytes of total cells present in culture at day 20 (400 ng/ml BMP2 from day 5-8): 67±10%
BMP2 concentration at which relatively more NKX2-5+TBX3+ myocytes were induced (50-400 ng/mL used, days 5-8): 200 to 400 ng/mL
BMP2 concentration giving highest percentage of AVNLPCs (treatment day 5-8, n=5 (FIG. 5B)): 200 to 400 ng/mL
